Data from patent publication US12324843B2, “Compositions and methods for delivery of biomacromolecule agents” (The Regents of the University of Michigan, priority 2015, dated 2025).

Experiment: Storage stability of sHDL nanodiscs
Assay type: physicochemical
Settings: DMPC sHDL stored at 4° C.

PVLDLFRELLNELLEALKQKLK [22A]
stability of sHDL suspension formed with the peptide: stable for one month
